Source: ChEMBL document CHEMBL1136415, “3-Acylamino-azetidin-2-one as a novel class of cysteine proteases inhibitors” (Bioorg Med Chem Lett, 2003)
pIC50: −log10 of the molar value.

The chains behind the UniProt entries cited, without tags or fusion partners. Where a name states a change or a piece, a line headed by the entry shows the natural chain unless it says otherwise.
UniProt P07711: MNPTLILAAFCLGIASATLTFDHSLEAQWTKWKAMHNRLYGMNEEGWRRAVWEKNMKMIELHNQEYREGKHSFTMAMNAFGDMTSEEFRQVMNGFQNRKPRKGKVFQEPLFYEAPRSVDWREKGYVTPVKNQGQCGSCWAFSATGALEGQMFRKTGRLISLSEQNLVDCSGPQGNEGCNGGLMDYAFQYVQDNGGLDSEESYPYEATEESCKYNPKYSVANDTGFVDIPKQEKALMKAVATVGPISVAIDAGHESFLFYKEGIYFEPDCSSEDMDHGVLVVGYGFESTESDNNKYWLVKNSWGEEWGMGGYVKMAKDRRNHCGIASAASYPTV

Target: Procathepsin L (Homo sapiens, UniProt P07711)
Assay: Inhibition of recombinant human Cathepsin L

pIC50: 8.59
Compound: O=C(N[C@@H](Cc1ccccc1)C(=O)N[C@@H]1C(=O)N[C@@H]1Oc1ccccc1)OCc1ccccc1
